This series is described as follows: Clearance of ePL from systemic circulation. The conditions noted are these: mouse, in vivo.

As to poly(L-lactic co glycolic acid) [ePL], the “ePL persistence in the circulation” value is less than 15 min.

Values taken from patent publication US20240252445A1, “COMPOSITIONS AND METHODS OF PROMOTING AC[…] THERAPEUTIC AND DIAGNOSTIC AGENTS IN THE HEART” (CASE WESTERN RESERVE UNIVERSITY, priority 2021, published 2024).
